In patent US10206905B2, “Use of composition for preparing a medicament for treatment of amyotrophic lateral sclerosis” (priority 2015, dated 2019):

Test system: SOD1-G93A mice
Assay: Onset time and survival time of SOD1-G93A mice (Example 3)
Format: in vivo
Description: The transgenic mice with amyotrophic lateral sclerosis (B 6 SJL-Tg(SOD1*G93A)1Gur/JNj u, hereinafter referred to as SOD1-G93 A mice) and the wild-type control mice were purchased from Nanjing Biomedical Research Institute of Nanjing University.
Experimental animals were divided into 6 groups, the wild control (Wt) group, the model (Tg) group, the positive drug Riluzole (Tg-Riluzole) group, the positive drugedaravonel5mg/kg (Tg-E15) group, the composition 5 mg/kg (Tg-05 group, 15 mg/kg (Tg-C15) group, respectively. The mass ratio of edaravone to natural borneol in the composition group was 4:1.
Dosing to animals was initiated from the age of 10 weeks, keeping on the whole survival period. Each dosage of the composition and the positive drug edaravone group was dosed by intraperitoneal injection once a day. The drug in the positive drug Riluzole group was dissolved in drinking water, 100 μg/ml. Animals in the wild control group and the model group were given the corresponding volumes of solvents by intraperitoneal injection.
From the age of 10 weeks, the body weight, the motor function (motor ability score, rotarod test) of animals had been monitored once a week. Two consecutive rod droppings in the animal rotarod test had been considered as the sign of the onset of animal diseases. […]

Nc1nc2ccc(OC(F)(F)F)cc2s1 [Riluzole]
Survival Time (100 μg/ml in drinking water from age 10 weeks, mean ± standard error): 155.8 ± 8.3*** d | Survival Time Extension (100 μg/ml in drinking water, versus SOD1-G93A control): 15.6 days

Marks after values point to notes of the source that are not given here.
